Laboratory results: ChEMBL document CHEMBL1130164, “Synthesis and protein kinase C inhibitory activities of balanol analogs with replacement of the perhydroazepine moiety” (J Med Chem, 1997)

Assays:
[1] = molecular target: T1, Protein kinase C epsilon type (Homo sapiens, UniProt Q02156); assay: Inhibitory concentration against recombinant human Protein kinase C epsilon isozyme
T1 sequence (Q02156 whole entry): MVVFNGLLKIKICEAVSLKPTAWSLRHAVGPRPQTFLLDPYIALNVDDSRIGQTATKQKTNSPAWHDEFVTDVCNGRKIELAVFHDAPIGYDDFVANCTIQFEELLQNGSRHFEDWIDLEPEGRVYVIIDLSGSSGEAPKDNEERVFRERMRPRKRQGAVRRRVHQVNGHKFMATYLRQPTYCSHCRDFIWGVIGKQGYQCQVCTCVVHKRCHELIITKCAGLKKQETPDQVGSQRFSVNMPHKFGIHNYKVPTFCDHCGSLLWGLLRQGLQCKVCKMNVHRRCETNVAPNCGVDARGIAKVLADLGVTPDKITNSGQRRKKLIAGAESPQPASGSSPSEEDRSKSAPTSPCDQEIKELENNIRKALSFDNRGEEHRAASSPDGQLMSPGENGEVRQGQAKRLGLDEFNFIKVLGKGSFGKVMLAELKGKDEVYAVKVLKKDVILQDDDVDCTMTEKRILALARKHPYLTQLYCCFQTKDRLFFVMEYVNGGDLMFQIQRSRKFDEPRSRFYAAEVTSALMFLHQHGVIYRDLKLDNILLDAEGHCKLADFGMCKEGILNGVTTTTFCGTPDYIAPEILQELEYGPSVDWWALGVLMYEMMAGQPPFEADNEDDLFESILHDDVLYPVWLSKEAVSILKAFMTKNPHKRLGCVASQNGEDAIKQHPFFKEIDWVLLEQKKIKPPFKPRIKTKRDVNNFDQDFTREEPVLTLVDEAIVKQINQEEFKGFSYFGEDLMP

[2] = molecular target: cAMP-dependent protein kinase catalytic subunit alpha (Homo sapiens, UniProt P17612); assay: Inhibitory concentration against recombinant human cAMP-dependent Protein kinase A

Question: `O=C(NC1CNCCCC1OC(=O)c1cc(O)c(C(=O)c2c(O)cccc2C(=O)O)c(O)c1)c1ccc(O)cc1` (racemic) was tested. Which IC50 [1] did it give?
Answer: 40 nM

Question: Which IC50 [1] does the source give for `O=C(N[C@H]1CNCCC[C@@H]1OC(=O)c1cc(O)c(C(=O)c2c(O)cccc2C(=O)O)c(O)c1)c1ccc(O)cc1` here?
Answer: 1000 nM

Question: Which IC50 [2] does the source give for `O=C(N[C@@H]1CCC[C@H]1OC(=O)c1cc(O)c(C(=O)c2c(O)cccc2C(=O)O)c(O)c1)c1ccc(O)cc1` here?
Answer: 30 nM
